The entries are a selection whose mix differs from that of the whole data set. Inconclusive results are not listed. Active and inactive are the calls of the source. The call rests on the fitted dose curve; in most records, active means well fitted inhibition curve with a large enough effect; inconclusive means small, poorly fitted or top-dose-only effect; inactive means no such curve, though single readings can be large or run the other way.
On the % scale 0 is the no-effect control and ±100 the full control effect; potency means the concentration at half of the fitted maximal effect.

Protein sequences, listed by entry. Tags and fused reporters are not part of them.
UniProt P24462, whole entry: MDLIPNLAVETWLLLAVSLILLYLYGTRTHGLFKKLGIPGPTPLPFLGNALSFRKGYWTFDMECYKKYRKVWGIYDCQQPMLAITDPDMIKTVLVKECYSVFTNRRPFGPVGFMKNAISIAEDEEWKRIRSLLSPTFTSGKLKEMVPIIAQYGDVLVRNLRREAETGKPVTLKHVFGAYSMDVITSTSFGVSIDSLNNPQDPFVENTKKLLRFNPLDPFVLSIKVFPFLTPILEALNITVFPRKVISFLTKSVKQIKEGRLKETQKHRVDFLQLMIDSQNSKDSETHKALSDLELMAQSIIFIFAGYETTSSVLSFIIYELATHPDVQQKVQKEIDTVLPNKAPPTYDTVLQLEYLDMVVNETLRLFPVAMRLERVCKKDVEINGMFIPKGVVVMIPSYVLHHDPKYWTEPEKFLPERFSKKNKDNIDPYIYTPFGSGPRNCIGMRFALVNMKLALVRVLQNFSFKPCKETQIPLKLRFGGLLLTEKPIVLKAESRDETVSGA

The assay deals with Cytochrome P450 3A7 (Homo sapiens) (UniProt P24462). The experiment in a line: Cytochrome P450 family 3 subfamily A member 7 (CYP3A7) small molecule antagonists: luciferase qHTS assay (AID 1963596; further: nearly all actives have a fitted effect of over 40% in size). The note with it: P450-Glo CYP3A7 enzyme luminescence, 1 h; series mostly up to 57.4 µM; activity change, negative = inhibition: at the top concentration. In short, it runs like this: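 P450-Glo luminescent assay: CYP3A7 enzyme converts a proluciferin substrate to luciferin, detected by luciferase reagent; light proportional to activity. Compounds in DMSO preincubated 10 min with enzyme-substrate mix at room temperature, then NADPH regeneration added for 1 h.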
Regarding `CCC(=O)N(c1ccccc1)C1(COC)CCN(CCc2cccs2)CC1`, the Potency is active: 2240 nM. As for `CCC(=O)N(c1ccccc1)C1(COC)CCN(CCn2nnn(CC)c2=O)CC1`, the Potency was active: 2470 nM. In the case of `CN(CCCl)CCCl`, the “activity change, negative = inhibition” value is inactive: -3.37%.

Source of the values: PubChem BioAssay (NCATS).
